Experiment [1] has as its system wildtype and Fgf14^N-βGal/N-βGal mice. Briefly: Locomotor activity response to stimulant drugs and dopamine receptor agonists. Format: in vivo, mouse. The note with it: 0.5 mg/kg. Here is the method: Locomotor activity. For the locomotor activity experiments, all mice were acclimated to the activity cages (28 cm long×17 cm wide×12.5 cm high) for one hour on two consecutive days. […] Mice were tested every other day and the order of drug treatment was counterbalanced across days within genotype groups. Locomotor activity was recorded every five minutes by two beams of red light placed at 10 and 19 cm along the length of the activity cage.
Statistical Analyses. The behavioral data were analyzed using analysis of variance (ANOVA) models typically containing one between-subjects variable (Genotype) and one within-subjects variable (e.g., Trials or Test Sessions). Subsequent one-way ANOVAs were used to evaluate main effects. Data from the experiments concerning drug effects on locomotor activity were analyzed by using a […] analysis of variance (ANOVA) with one between-subjects variable (Drug) being added to the above model. […] Alpha was set at p<0.05 for all analyses.

The next experiment has as its system mice. The note with it: mouse, in vivo; cited from earlier work.

Regarding `CCCN1CCC[C@@H]2Cc3n[nH]cc3C[C@H]21` [quinpirole], the “decrease in locomotor activity” value in experiment [1] is recorded as 4.5 fold. In addition, the “effect on locomotor activity” value in the experiment on mice is given as “dose dependent decrease”.

The values above are taken from US20030037354A1, “Animal model with disrupted Fgf14 gene” (priority 2001, published 2003).
